Results from patent US20250255808A1, “NANOGEL PLATFORM TECHNOLOGY FOR LONG-TERM BIOLOGICS THERAPY” (UNIVERSITY OF MARYLAND, BALTIMORE, priority 2022, published 2025).

Test: In vivo insulin pharmacokinetics and ocular distribution after subconjunctival injection
Parameters: species or system SD rats
Method: Insulin-loaded 72A nanogels containing 10% acrylic acid as bulk and surface modifier in PBS (20 mg/mL; equivalent to 3 mg/mL insulin) were injected subconjunctivally (20 μL) to the left eye of anaesthetized SD rats (n=5) using a 25 gauge Hamilton™ needle. The right eyes were injected with PBS to serve as sham controls. After 1, 3 and 7 days of injection, the rats were euthanized, their eyes were inoculated, and the aqueous humor (AH), vitreous humor (VH), cornea, lens, Iris/ciliary body (CB), sclera, choroid and retina were collected in a weighted 2 mL flat bottom Eppendorf™ microcentrifuge tube and were kept at −80° C. until tissue homogenization and insulin extraction.
Similarly, another group of rats (n=5) were injected with an equivalent amount of insulin in PBS. Before tissue homogenization, the tough tissues (lens, cornea and sclera) were ground by a CryoGrinder™ System (OPS Diagnostics LLC) at cryogenic temperatures. […]
Prior to the homogenization step, 20 μL 1 mg/mL bovine insulin was added as an internal standard. […] Then the insulin in the desolate was extracted using a solid phase extraction column and the insulin trapped in the column was extracted in 20 μL solvent mixture (acetonitrile: isopropanol: water: HAC 50:24:24:2 v/v/v/v) and quantitated using LC-MS. […]

Substance: insulin
- insulin detected in ocular tissues (after 3 and 7 days): no appreciable amount
- insulin recovered in different ocular tissues (one day after subconjunctival injection): significant amount
